## Apparent affinities of Ab-14 variants for a coronavirus HR2 peptide

From the AlphaSeq antibody data of Li et al. 2023 (doi:10.1038/s41467-023-39022-2), copy in the FLAb collection.

All variants were tested on one target, the spike HR2 peptide PDVDLGDISGINAS (SARS-CoV-2).

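Designed CDR sequences, proposed from the first random library and measured here. Group labels follow the data file (Ctrl: baseline library sampled from a position-specific scoring matrix, with some repeated check sequences; En: ensemble of fine-tuned language models; GP: Gaussian process model; GPLM: also part of the Gaussian process libraries; HC: hill climbing; Gen: genetic algorithm; Gibbs: Gibbs sampling; a sequence that several methods proposed may carry one label only). AlphaSeq pools MATa yeast showing the antibodies with MATalpha yeast showing the peptide. Binding brings cells together so that they mate, and sequencing counts the barcode pairs among the diploids. Each replicate has its own calibration line, from reference interactions of the BCL2 family. Mating was done six times.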

Parent scFv Ab-14: VH joined to VL by a (GGGGS)3 linker. Changes lie in the heavy chain CDRs alone.
VH: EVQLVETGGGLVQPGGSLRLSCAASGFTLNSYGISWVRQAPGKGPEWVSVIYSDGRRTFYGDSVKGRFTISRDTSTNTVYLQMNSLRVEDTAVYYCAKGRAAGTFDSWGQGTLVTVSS
VL: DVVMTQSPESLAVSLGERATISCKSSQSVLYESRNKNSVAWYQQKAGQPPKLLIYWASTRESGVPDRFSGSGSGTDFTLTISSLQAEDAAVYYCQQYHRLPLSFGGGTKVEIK

Variants are written as CDR1, CDR2 and CDR3 of the heavy chain (limits as in the source). Parent: GFTLNSYGIS, VIYSDGRRTFYGDSVK, GRAAGTFDS. Values are log10 of the apparent Kd in nM; lower means stronger binding. Averages over replicates are reported, and they cover detected replicates only. "ND" means that the variant was in the library but no mating with the target was seen in that replicate; the authors take this as a sign of poor binding, and no number exists. The authors' rule: three or more of the six replicates give a measured affinity, fewer mean a poor binder. Values of this round are not directly comparable with the first-round values of the same sequences. Of ten entries with the parent sequence, four were seen in most replicates (averages 0.34 to 2.37), three in one and three in none, so single entries are noisy. Nonspecific signal, from three strains lacking the peptide, appeared in 1% of pairings of all heavy chain designs, centred on 2.08 (5% of these signals below 0.84); values are not corrected for it.

{"CDR-H1": "GFDLNEYGIS", "CDR-H2": "VIYADGMRTQYIDSVK", "CDR-H3": "GNQAGTFDL", "group": "En_HC", "log10 Kd, replicates": "0.49 0.23 0.22 -0.14 0.33 0.30", "log10 Kd (nM), mean": "0.24"}
{"CDR-H1": "GFTLNEYGIS", "CDR-H2": "VIYSDGRRTFYHDSVK", "CDR-H3": "GRAAGMFDS", "group": "GP_HC", "log10 Kd, replicates": "ND ND ND ND ND ND", "log10 Kd (nM), mean": "ND"}
{"CDR-H1": "GFSLNSYGIS", "CDR-H2": "VIYSDGRRTFYMDSVK", "CDR-H3": "GNTAGTFDS", "group": "GP_Gibbs", "log10 Kd, replicates": "0.31 -0.32 0.07 0.67 0.69 1.38", "log10 Kd (nM), mean": "0.47"}
{"CDR-H1": "GFDLNEYGIS", "CDR-H2": "VIYADGKRSAYADSVK", "CDR-H3": "GENAGTFDV", "group": "En_Gen", "log10 Kd, replicates": "0.60 0.09 -0.36 -0.19 0.04 -0.31", "log10 Kd (nM), mean": "-0.02"}
{"CDR-H1": "GFDIQEYGIS", "CDR-H2": "VIYADGHRTAYTNKVK", "CDR-H3": "GGISMISST", "group": "En_Gibbs", "log10 Kd, replicates": "ND ND ND ND ND ND", "log10 Kd (nM), mean": "ND"}
{"CDR-H1": "GQGLDEYGIS", "CDR-H2": "VIYADGMRTYYTPNVK", "CDR-H3": "GQVLGVMNI", "group": "En_Gibbs", "log10 Kd, replicates": "ND ND ND ND ND ND", "log10 Kd (nM), mean": "ND"}
{"CDR-H1": "GFDLDEYGIS", "CDR-H2": "VIYADGRRTFYADSVK", "CDR-H3": "GEAAGTFDI", "group": "En_HC", "log10 Kd, replicates": "0.41 0.10 0.75 -0.04 0.14 -0.28", "log10 Kd (nM), mean": "0.18"}
{"CDR-H1": "GFDLDEYGIS", "CDR-H2": "VIYADGKRTSYADSVK", "CDR-H3": "GNVAGTFDV", "group": "En_Gen", "log10 Kd, replicates": "-0.11 -0.46 -0.80 -0.24 -0.52 -0.04", "log10 Kd (nM), mean": "-0.36"}
{"CDR-H1": "GEDLDEYGIS", "CDR-H2": "VIYADGLRTAYADNFK", "CDR-H3": "GHLGGQFDM", "group": "En_Gibbs", "log10 Kd, replicates": "ND 1.34 3.02 ND 1.90 2.25", "log10 Kd (nM), mean": "2.13"}
{"CDR-H1": "GFALNDYGIS", "CDR-H2": "VIYSDGRRTYYGDSVK", "CDR-H3": "GRAAGTFDS", "group": "GP_HC", "log10 Kd, replicates": "0.80 0.44 0.33 0.27 0.07 0.42", "log10 Kd (nM), mean": "0.39"}
{"CDR-H1": "GLTLNSYGIS", "CDR-H2": "VIYSDGRRTFYGDSVK", "CDR-H3": "GRAAGTFDS", "group": "Ctrl", "log10 Kd, replicates": "ND ND ND 1.93 3.16 2.45", "log10 Kd (nM), mean": "2.51"}
{"CDR-H1": "GFTLESYGIS", "CDR-H2": "VIYSDGRRTFYADSVK", "CDR-H3": "GAAAGTFDS", "group": "GPLM_Gen", "log10 Kd, replicates": "0.66 0.91 -0.30 0.21 -0.04 -0.30", "log10 Kd (nM), mean": "0.19"}
{"CDR-H1": "GATLNSYGIS", "CDR-H2": "VIYSDGRRTFYGDSVK", "CDR-H3": "GRQAGTFDS", "group": "Ctrl", "log10 Kd, replicates": "2.55 1.45 2.74 1.83 3.46 ND", "log10 Kd (nM), mean": "2.41"}
{"CDR-H1": "GFDLNEYGIS", "CDR-H2": "VIYADGVRTAYADNVK", "CDR-H3": "GEVAGTFDL", "group": "En_Gen", "log10 Kd, replicates": "0.53 1.42 0.97 1.81 1.73 1.69", "log10 Kd (nM), mean": "1.36"}
{"CDR-H1": "GFDLNEYGIS", "CDR-H2": "VIYADGIRTFYADSVK", "CDR-H3": "GNAAGTFDM", "group": "En_HC", "log10 Kd, replicates": "0.03 -0.41 -0.27 -0.31 -0.38 0.05", "log10 Kd (nM), mean": "-0.21"}
{"CDR-H1": "GFSIDEYGIS", "CDR-H2": "VIYADGLRQHYANAVK", "CDR-H3": "GEAAGTFDT", "group": "En_Gibbs", "log10 Kd, replicates": "ND 1.79 1.04 2.15 2.12 1.62", "log10 Kd (nM), mean": "1.75"}
{"CDR-H1": "GFDLNEYGIS", "CDR-H2": "VIYADGRRTFYADSVK", "CDR-H3": "GNVAGTFVQ", "group": "En_HC", "log10 Kd, replicates": "-0.58 -0.49 -0.98 -0.94 -0.79 -0.75", "log10 Kd (nM), mean": "-0.76"}
{"CDR-H1": "GFTLNSYGIS", "CDR-H2": "VIYSDGRRTFYADSVK", "CDR-H3": "GKTAGTFDS", "group": "GPLM_Gen", "log10 Kd, replicates": "0.98 0.55 0.45 0.58 0.40 0.56", "log10 Kd (nM), mean": "0.59"}

Top 3 of the variants detected in all replicates, tightest first:

{"CDR-H1": "GFDLNEYGIS", "CDR-H2": "VIYADGRRTFYADSVK", "CDR-H3": "GNVAGTFVQ", "group": "En_HC", "log10 Kd, replicates": "-0.58 -0.49 -0.98 -0.94 -0.79 -0.75", "log10 Kd (nM), mean": "-0.76"}
{"CDR-H1": "GFDLDEYGIS", "CDR-H2": "VIYADGKRTSYADSVK", "CDR-H3": "GNVAGTFDV", "group": "En_Gen", "log10 Kd, replicates": "-0.11 -0.46 -0.80 -0.24 -0.52 -0.04", "log10 Kd (nM), mean": "-0.36"}
{"CDR-H1": "GFDLNEYGIS", "CDR-H2": "VIYADGIRTFYADSVK", "CDR-H3": "GNAAGTFDM", "group": "En_HC", "log10 Kd, replicates": "0.03 -0.41 -0.27 -0.31 -0.38 0.05", "log10 Kd (nM), mean": "-0.21"}